# Source: PMC5340791, “New approaches for the reliable in vitro assessment of binding affinity based on high-resolution real-time data acquisition of radioligand-receptor binding kinetics” (EJNMMI Research, 2017)
# Protein sequences, listed by entry. Tags and fused reporters are not part of them.
# UniProt P0DMS8, whole entry: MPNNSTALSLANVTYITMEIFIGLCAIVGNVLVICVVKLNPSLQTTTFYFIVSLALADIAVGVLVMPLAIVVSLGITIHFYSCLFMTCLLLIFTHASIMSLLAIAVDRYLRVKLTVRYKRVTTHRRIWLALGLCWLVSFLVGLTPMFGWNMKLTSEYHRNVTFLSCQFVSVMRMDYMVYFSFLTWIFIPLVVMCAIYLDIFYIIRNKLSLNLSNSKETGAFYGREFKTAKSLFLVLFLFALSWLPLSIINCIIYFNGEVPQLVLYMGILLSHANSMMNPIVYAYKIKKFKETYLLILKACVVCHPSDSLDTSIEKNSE
# Target: T1, human adenosine A3 receptor (CHO-K1-hA3R cells) (Homo sapiens, UniProt P0DMS8)
# T1 construct: expressed in transfected cells
# Experiment: Kinetic real-time cell-binding studies (LigandTracer) with [125I]-AB-MECA
# Conditions: ratio k off/k on
# Procedure: The assay protocol comprised repeated measurements of three points of the dedicated area in which the cells were seeded (cell pole) and three points of the opposing cell-free area (reference pole) of the petri dish as shown in Fig. 2a. Target distribution and cell attachment of the CHO-K1-hA3R cells were monitored continuously during the whole course of the binding experiment in the perimeter trace (Fig. 2b). Raw signal levels from consecutive measurements (n = 8) of a representative experiment after binding equilibrium of 0.7 nM [^125I]-AB-MECA were clearly distinguishable and determined to be 39.51 ± 0.50, 43.82 ± 0.76 and 38.69 ± 0.52 for the cell pole and 8.55 ± 0.29, 7.41 ± 0.22 and 10.74 ± 0.52 for the reference pole, respectively, which is outlined in Fig. 2b. The corresponding binding trace of the radioligand was calculated as the difference between the averaged values of the cell pole and the reference pole yielding in a stable background-corrected signal. Kinetic real-time cell-binding studies were conducted on CHO-K1-hA3R cells with [^125I]-AB-MECA at ambient temperature with LigandTracer® Grey. The experiments were started with baseline measurements 10–15 min prior radioligand incubation. Binding of [^125I]-AB-MECA to the seeded cells was realized by adding different concentrations (0.05–5 nM) to fully cover the concentration span needed for proper affinity estimation. Each dedicated concentration was incubated separately in a single petri dish, and the observed rate constants of the association reaction (kobs) were monitored in real-time until binding equilibrium. Unspecific uptake of the radioligand on the cell surface was confirmed with native CHO-K1 cells. As mentioned previously, the perimeter trace of the LigandTracer® was used to assure cell viability and attachment.
# Data of the observed association phases determined in kinetic real-time cell-binding studies were transformed to start at time point zero. Transformed data were grouped together and globally fitted by using “association kinetics—two or more conc. of hot” to derive a single best-fit estimate for k on and k off as described as follows:5 Y=Ymax*1−e^−kob*x where “x” is a given time and “Y” reflects the amount of bound radioligand for a dedicated time point. “Y max” corresponds to the maximum amount of bound radioligand after equilibrium and “k ob” expresses the observed rate constant of the association reaction.
# The observed rate constant of the association reaction is a function of the dedicated radioligand concentration, the association rate constant and the dissociation rate constant, which is described as follows:6 kob=kon*L+koff where “k ob” is the observed rate constant of the association reaction, “k on” represents the association rate constant, “L” reflects the radioligand concentration and “k off” indicates the dissociation rate constant. Considering Eqs. (5) and (6), best fit estimations for k on and k off can be calculated by using multiple radioligand concentrations. The resulting rate constants were used to obtain the K d as the ratio of k off/k on. An estimation of the target concentration of each single petri dish was derived by using the following equation:7 Ymax=L/L+Kd*Bmax where “Y max” is the maximum amount of bound radioligand after equilibrium and “B max” reflects the maximum amount of target receptors. “L” corresponds to the radioligand concentration and “K d” indicates the affinity of dedicated radioligand.
smiles,measurement,setting,value
"CNC(=O)[C@H]1O[C@@H](n2cnc3c(NCc4ccc(N)c(I)c4)ncnc32)[C@H](O)[C@@H]1O [[^125I]-AB-MECA, [^125I]-4-aminobenzyl-5′-N-methylcarboxamideoadenosine]",Kd,"Averaged, data from three independent experiments",0.636 ± 0.076 nM
same,Kd,2 concentrations of radioligand,0.887 ± 0.121 nM
same,Kd,3 concentrations of radioligand,0.528 ± 0.118 nM
same,Kd,4 concentrations of radioligand,0.556 ± 0.132 nM
same,Kd,5 concentrations of radioligand,0.704 ± 0.054 nM
same,Kd,6 concentrations of radioligand,0.695 ± 0.052 nM
same,Kd,7 concentrations of radioligand,0.683 ± 0.056 nM
same,Kd,8 concentrations (0.05–5 nM) of radioligand,0.711 ± 0.056 nM
